Experiments:
[1] = target: R67 DHFR (Escherichia coli, UniProt P00383); assay: ITC, NADP+ binding to apo-R67 DHFR; conditions: read-out: Kd of NADP^+ binding to apo-R67 DHFR, buffer, 25 °C, pH 7.0
[2] = target: apo-EcDHFR (Escherichia coli, UniProt P0ABQ4); assay: ITC, NADP+ binding to apo-EcDHFR; parameters: species or system E. coli; conditions: read-out: Kd of NADP^+ binding to apo-EcDHFR, buffer alone, 25 °C, pH 7.0

Chains of the proteins cited; added tags and fusions are not shown. Lines headed by an entry give the natural chain unless they say otherwise; changes in a name come on top.
UniProt P00383: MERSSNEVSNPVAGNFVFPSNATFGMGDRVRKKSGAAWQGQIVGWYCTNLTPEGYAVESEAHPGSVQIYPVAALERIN
UniProt P0ABQ4: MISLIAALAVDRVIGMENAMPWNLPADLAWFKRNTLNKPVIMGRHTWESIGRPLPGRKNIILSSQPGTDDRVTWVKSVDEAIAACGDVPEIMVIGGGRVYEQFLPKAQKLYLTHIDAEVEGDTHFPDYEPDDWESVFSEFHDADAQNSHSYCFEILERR

For “oxidized nicotinamide adenine dinucleotide phosphate [NADP^+, reference compound]”, the Kd [1] was 98 ± 9 µM and the Kd [2] was 5 ± 0.4 µM.

— publication PMC6589827 (Biochemistry, 2019)
